# Measurements from patent publication US9326994B2, “Amine functional polyamides” (GENZYME CORPORATION, priority 2013, dated 2016).
# Tested on: renal proximal tubule epithelial cells (RPTEC)
# Type: cell-based
# Description: Cells were plated at 3,000 cells/well (RPTEC) or 5,000 cells/well (NHDF) in 96-well plates and incubated overnight at 37° C. The compounds were added to the wells, and the cells were incubated for 4 days. Alomar Blue was added to one set of plates and incubated for 4 hours. The plates were read when the compound was added (time zero) and at the end of the study. Fluorescence was read using 530 nm (excitation) and 590 nm (emission) according to the manufacturer's instructions.
row,Substance,Cytotoxicity (Kidney Epithelial IC50)
1,"Guanidine terminated poly(4,4-trimethylene dipiperidinebispropanoic acid-diaminopropane)",1
2,"Poly(4,4-trimethylene dipiperidinebispropanoic acid-diaminopropane) (guanidine ended)",2
3,"Poly(4,4′-trimethylenedipiperidine bisethylacrylamide-co-1-amino-3-guanidine propane)",22
